Experimental data: US20120244566A1

By UniProt entry, the sequences of proteins in these tests, tags left out. Residues count along the entry.
UniProt O15530, whole entry: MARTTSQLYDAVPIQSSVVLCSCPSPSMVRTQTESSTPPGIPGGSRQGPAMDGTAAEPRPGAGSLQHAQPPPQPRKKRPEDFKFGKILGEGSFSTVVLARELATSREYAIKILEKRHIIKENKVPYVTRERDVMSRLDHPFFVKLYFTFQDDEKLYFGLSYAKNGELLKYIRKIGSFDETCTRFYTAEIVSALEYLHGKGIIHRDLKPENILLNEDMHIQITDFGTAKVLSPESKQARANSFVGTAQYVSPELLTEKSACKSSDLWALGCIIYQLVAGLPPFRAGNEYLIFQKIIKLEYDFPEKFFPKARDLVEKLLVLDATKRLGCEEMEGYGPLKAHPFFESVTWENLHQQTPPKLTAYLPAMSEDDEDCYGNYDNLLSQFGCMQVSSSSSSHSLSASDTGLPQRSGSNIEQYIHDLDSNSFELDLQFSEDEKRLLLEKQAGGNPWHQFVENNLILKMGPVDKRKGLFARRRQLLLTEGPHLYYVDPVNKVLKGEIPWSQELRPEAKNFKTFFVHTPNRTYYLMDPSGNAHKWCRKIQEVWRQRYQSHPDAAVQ
UniProt O15530, 51-359 limits assumed: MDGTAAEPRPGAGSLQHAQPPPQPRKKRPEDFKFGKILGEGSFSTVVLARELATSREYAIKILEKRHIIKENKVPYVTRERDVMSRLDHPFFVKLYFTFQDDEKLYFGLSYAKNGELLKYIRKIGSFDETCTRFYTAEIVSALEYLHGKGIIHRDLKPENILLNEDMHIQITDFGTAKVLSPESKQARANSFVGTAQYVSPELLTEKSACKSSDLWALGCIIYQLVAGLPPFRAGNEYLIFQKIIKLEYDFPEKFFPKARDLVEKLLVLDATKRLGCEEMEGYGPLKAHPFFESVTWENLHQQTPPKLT

Assays:
[1] = target: full-length PDK1 (Homo sapiens, UniProt O15530); assay: Caliper mobility shift assay, PDK1 inhibition, with TDA 2.0
Procedure: (§1) Enzyme inhibition—Inhibition studies were conducted using two assay formats, Omnia and Caliper. For the Omnia assay, K1^app studies were conducted in the presence of 20 nM catalytic domain of PDK1, 50 μM ATP and 3 μM PDK1-Onmia-peptide in a 50 mM Hepes, 5 mM MgCl2, 0.01% Brij-35, 1 mM DTT assay buffer at pH 7.4. The increase of fluorescence (λex=360 nm and λem=485 nm) was recorded continuously using a Safire TECAN plate reader. For the Caliper assay, the Ki^app constant for full-length PDK1 alone was determined in the presence of 25 nM enzyme. […] Both sets of Caliper inhibition study were conducted with 2.5 μM TDA 2.0™, 1 mM ATP and 5 μM peptide in 50 mM Tris buffer, 10 mM MgCl2, 0.01% Tween-20 pH 7.4 with 5% DMSO. The enzyme, the peptide and various amounts of inhibitor were preincubated for 15 min, prior addition of ATP to the reaction media.
(§2) Ki^app and Ki were calculated by fitting the experimental data to the following equations (J. F. Morrison Kinetics of the reversible inhibition of enzyme catalysed reactions by tight-binding inhibitors. Biochim. Biophys. Acta 185, (1969), 269-286):
(§3) [E]o and [I]o are the total active enzyme and inhibitor concentrations, respectively; Ki is the inhibition binding constant; Vi and Vo are the rates of peptide phosphorylation in the presence or in the absence of inhibitor, respectively; [A]o is the total ATP concentration.
The effect of liposomes on the PDK1 activity was also evaluated in the presence of PDK1 inhibitors from the carbonyl-4-amino-pyrrolopyrimidine series. A comparative study was conducted in two different assay formats, Omnia kinetic assay and Caliper mobility shift assay. The Ki values obtained using the Omnia assay were determined without TDA 2.0™ as opposed to the values determined using the Caliper assay. […] One selective PDK1 inhibitor from the carbonyl-4-amino-pyrrolopyrimidine series, PF-5168899, was also evaluated to prevent the activation of AKT using a cascade biochemical assay. […] This inhibitor was used as a tool to evaluate the inhibition of PDK1 upon downstream biomarkers such as the activation of AKT. […] Under these circumstances, selective inhibition of PDK1 could only have a limited effect upon the rest of AKT pathway.

[2] = system: AKT1; assay: Caliper cascade assay: activation of inactive AKT1 by PDK1 and mTOR with TDA 2.0
Procedure: AKT activation in the presence of mTOR and PDK1—Activation of AKT1 and AKT2 were conducted in Tris buffer with 2% DMSO. The reaction was conducted with 25 nM unactivated AKT(1 and 2), 25 nM mTOR, 2.5 nM PDK1, and 2.5 μM TDA 2.0™. The reaction was initiated with 5 μM AKT substrate (SFAM-GRPRTSSFAEG-CONH2) and 1 mM ATP and the rate of substrate conversion was measured on a LabChip EZ-Reader. The instrument was set up to collect aliquots from the assay mixture at regular intervals. The upstream, downstream voltages and the pressure were set to −2800 V, −380 V, and 0.8 psi, respectively.
as §1, §2, §3

[3] = target: T1, catalytic domain of PDK1 (Homo sapiens, UniProt O15530); conditions: read-out: Ki (nM, Omnia); Omnia format; data from Murphy S et al (footnote a); cited from earlier work
[4] = target: T1, catalytic domain of PDK1; assay: Omnia kinetic assay, PDK1 inhibition, without TDA 2.0; conditions: read-out: Ki (nM, Omnia), 20 nM catalytic domain of PDK1, 50 μM ATP, Ki app converted into Ki
Procedure: Enzyme inhibition—Inhibition studies were conducted using two assay formats, Omnia and Caliper. For the Omnia assay, K1^app studies were conducted in the presence of 20 nM catalytic domain of PDK1, 50 μM ATP and 3 μM PDK1-Onmia-peptide in a 50 mM Hepes, 5 mM MgCl2, 0.01% Brij-35, 1 mM DTT assay buffer at pH 7.4. The increase of fluorescence (λex=360 nm and λem=485 nm) was recorded continuously using a Safire TECAN plate reader. For the Caliper assay, the Ki^app constant for full-length PDK1 alone was determined in the presence of 25 nM enzyme. […]
Ki^app and Ki were calculated by fitting the experimental data to the following equations (J. F. Morrison Kinetics of the reversible inhibition of enzyme catalysed reactions by tight-binding inhibitors. Biochim. Biophys. Acta 185, (1969), 269-286): […]
The effect of liposomes on the PDK1 activity was also evaluated in the presence of PDK1 inhibitors from the carbonyl-4-amino-pyrrolopyrimidine series. […] The Ki values obtained using the Omnia assay were determined without TDA 2.0™ as opposed to the values determined using the Caliper assay. […] One selective PDK1 inhibitor from the carbonyl-4-amino-pyrrolopyrimidine series, PF-5168899, was also evaluated to prevent the activation of AKT using a cascade biochemical assay. […]

[5] = read-out: Ki (nM, Caliper), 25 nM full-length PDK1, 2.5 μM TDA 2.0, 1 mM ATP, Ki app converted into Ki

Row | Ki app for PDK1 ([1]; full-length PDK1, TDA 2.0, high ATP (1 mM)) | Ki value for PDK1 ([1]; in the presence and in the absence of lipid vesicles) | Ki [1, 5] [nM] | Ki ([1]; read-out: Ki app for PDK1, full-length PDK1, TDA 2.0, high ATP (1 mM)) [nM] | Ki ([1]; read-out: Ki for PDK1, full-length PDK1, TDA 2.0, 1 mM ATP) [nM] | Ki [4] [nM] | SMILES | Ki app for preventing activation of AKT1 in cascade assay ([2]; 25 nM inactive AKT1, 25 nM mTOR, 2.5 nM full-length PDK1, 2.5 μM TDA 2.0, 1 mM ATP) | fold increase of Ki app, AKT1 cascade compared to PDK1 ([2]; AKT1 cascade Ki app versus PDK1 Ki app) [fold] | Ki ([2]; read-out: Ki app for preventing activation of AKT1 in cascade assay, 25 nM inactive AKT1, 25 nM mTOR, 2.5 nM full-length PDK1, 2.5 μM TDA 2.0, 1 mM ATP) [nM] | Ki [3] [nM]
1 | nM range | nM range | 0.3 | 31.5 | 0.31 | – | CC(=O)N1CC[C@@H](Nc2cncc(C(=O)c3cn(C(C)C)c4ncnc(N)c34)n2)[C@H]1c1ccccc1 | μM range | 70 | 1530 | 2.5
2 | – | – | 1.8 | – | – | – | CC(C)n1cc(C(=O)c2cncc(N[C@@H]3CCO[C@@H]3c3ccc(F)cc3)n2)c2c(N)ncnc21 | – | – | – | 1.25
3 | – | – | 10.6 | – | – | 2.3 | CC(C)n1cc(C(=O)c2cncc(NC3CCCC3c3ccccc3)n2)c2c(N)ncnc21 (racemic) | – | – | – | –
4 | – | – | 0.6 | – | – | 0.2 | CC(C)n1cc(C(=O)c2cncc(N[C@@H]3CCC[C@@H]3n3cccn3)n2)c2c(N)ncnc21 | – | – | – | –

Like-named read-outs stand apart in the source and are kept apart here.
